# According to patent publication US12139487B2, “Compounds and uses thereof” (Foghorn Therapeutics Inc., priority 2022, dated 2024):
# Tested on: uveal melanoma and hematologic cancer cell lines versus other tested cell lines
# Test: Growth of uveal melanoma, hematological and other cancer cell lines with Compound A (Cell-titer glo, day 3 and day 7, GI50)
# Format: cell-based
# Conditions: uveal melanoma and hematologic cancer cell lines vs other tested cell lines; 0 to 10 micromolar; FIG. 1
# Procedure: Procedure: Uveal melanoma cell lines (92-1, MP41, MP38, MP46), prostate cancer cell lines (LNCAP), lung cancer cell lines (NCI-H1299), and immortalized embryonic kidney lines (HEK293T) were plated into 96 well plates with growth media (see Table 9). […] Cells were incubated at 37 degrees Celsius for 3 days. After three days of treatment, the media was removed from the cells and 30 microliters of TrypLE (Gibco) was added to cells for 10 minutes. Cells were detached from the plates and resuspended with the addition of 170 microliters of growth media. Cells from two DMSO-treated control wells were counted, and the initial number of cells plated at the start of the experiment, were re-plated into fresh-compound containing plates for an additional four days at 37 degrees Celsius. At day 7, cells were harvested as described above. On day 3 and day 7, relative cell growth was measured by the addition of Cell-titer glo (Promega) and luminescence was measured on an Envision plate reader (Perkin Elmer). […] At the time of cell splitting on days 3 and 7, cells were split into new 96 well plates, and fresh compound was added four hours after re-plating.
smiles,measurement,value
CSCC[C@H](NC(=O)c1ccc(N)cc1)C(=O)Nc1nc(-c2cccc(-c3ccncc3)c2)cs1 [Compound A],"sensitivity of cell lines to BRG1/BRM inhibition (growth, GI50)",more sensitive to BRG1/BRM inhibition than the other tested cell lines
